Results taken from article PMC4580987, “Catalytic site inhibition of insulin-degrading enzyme by a small molecule induces glucose intolerance in mice” (Nature Communications, 2015).

Amino acid sequences for entries named in this document (tags omitted).
UniProt P14735, whole entry: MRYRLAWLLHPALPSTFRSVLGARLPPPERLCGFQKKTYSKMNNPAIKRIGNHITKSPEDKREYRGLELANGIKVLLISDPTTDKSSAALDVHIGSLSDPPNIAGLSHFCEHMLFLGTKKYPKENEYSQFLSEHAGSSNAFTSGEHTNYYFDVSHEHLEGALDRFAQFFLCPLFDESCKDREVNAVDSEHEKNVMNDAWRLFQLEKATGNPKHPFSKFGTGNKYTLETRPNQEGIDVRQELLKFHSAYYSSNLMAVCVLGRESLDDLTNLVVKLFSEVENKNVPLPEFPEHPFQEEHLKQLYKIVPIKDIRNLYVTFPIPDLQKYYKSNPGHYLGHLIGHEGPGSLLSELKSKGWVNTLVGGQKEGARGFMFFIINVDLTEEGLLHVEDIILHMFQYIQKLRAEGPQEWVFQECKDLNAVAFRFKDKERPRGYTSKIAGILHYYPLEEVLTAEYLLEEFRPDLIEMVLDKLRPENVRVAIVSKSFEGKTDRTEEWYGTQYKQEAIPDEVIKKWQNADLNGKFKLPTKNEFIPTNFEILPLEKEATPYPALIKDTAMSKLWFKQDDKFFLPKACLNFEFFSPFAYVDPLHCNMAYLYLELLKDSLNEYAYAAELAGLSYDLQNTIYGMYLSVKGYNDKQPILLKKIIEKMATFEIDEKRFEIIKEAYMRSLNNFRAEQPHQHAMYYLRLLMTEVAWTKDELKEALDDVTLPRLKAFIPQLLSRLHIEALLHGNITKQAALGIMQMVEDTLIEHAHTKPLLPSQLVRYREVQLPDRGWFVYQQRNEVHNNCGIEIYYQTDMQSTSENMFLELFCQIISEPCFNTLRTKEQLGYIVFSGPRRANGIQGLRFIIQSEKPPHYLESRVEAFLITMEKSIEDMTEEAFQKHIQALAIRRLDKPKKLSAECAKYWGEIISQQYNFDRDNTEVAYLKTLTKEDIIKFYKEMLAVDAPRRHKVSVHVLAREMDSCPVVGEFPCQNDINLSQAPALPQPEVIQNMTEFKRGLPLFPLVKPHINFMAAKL

What was measured:
[1] = target: T1, hIDE (Homo sapiens, UniProt P14735); assay: In vitro hIDE inhibition of insulin hydrolysis; details: for pIC50: read-out: IC50 insulin hydrolysis, full insulin substrate, value (CI 95%), mean of 3 to 10 experiments
[2] = target: T1, hIDE; assay: In vitro hIDE inhibition of Aβ16–23-based substrate hydrolysis; format: biochemical; details: for pIC50: read-out: IC50 Aβ16-23 hydrolysis, labelled Aβ16-23 substrate, value (CI 95%), mean of 3 to 10 experiments, >100 c = < 10% inhibition at 100 µM
Procedure: In vitro IDE activity was measured with a quenched substrate […]. Human recombinant IDE was cloned and purified as previously described. […] All measurements were carried out as 8-point dose response curves and reported as the average of at least three independent measurements. […] Data analysis was performed using Xlfit v 5.0 and GraphPad Prism v 4.0. Nonlinear curve fitting and statistical analysis was done using built-in functions.

inhibition at 100 µM, insulin hydrolysis ([1]; 100 µM (footnote c)) [%]	pIC50 [1]	inhibition at 100 µM, Aβ16-23 hydrolysis ([2]; 100 µM (footnote c)) [%]	pIC50 [2]	Compound
< 10	< 4.00	< 10	< 4.00	O=C(C[C@@H](Cc1ccc2ccccc2c1)n1nncc1CNC(=O)CCc1ccccc1)NO
	6.00		5.36	O=C(C[C@@H](Cc1ccc2ccccc2c1)n1cc(CNC(=O)CCc2ccccc2)nn1)NO
	4.30		4.17	O=C(NCc1cn([C@H](Cc2ccc3ccccc3c2)C(=O)NO)nn1)c1ccc(F)cc1

pIC50: −log10 of the molar value.
